{"source": "patent US20260382479A1", "about": "“COSMETIC USE OF A COMPOSITION FOR CARING FOR KERATIN MATERIALS COMPRISING AT LEAST INDOLE-3-ACETAMIDE” (published 2026)", "key": {"[1]": {"test_system": "dermatitis-like mouse model", "details": "topical application, Yu et al 2019; cited from earlier work"}, "[2]": {"test_system": "TSLP", "test": "TSLP production in culture supernatant of cocktail-stimulated RHE-shFLG (atopic dermatitis model)", "details": "IALD, I3A 10 μg/ml, FICZ 100 ng/ml, 48 h after stimulation, Poly(I:C) + IL-4 + IL-13 + TNF", "method": "(§1) The reconstructed epidermis rests on an inert non-submerged polycarbonate surface of 0.5 cm^2, and is cultured on cell culture medium (Episkin). In our study, the RHEs are produced using filaggrin (FLG)-deficient keratinocytes. […] This FLG-deficient line was generated using a short hairpin RNA that targets FLG (shFLG). The use of the RHE-shFLG in a 3D RHE model has been published (see Madiedo-Podvrsan et al., Sci Rep. 2021 Mar. 18; 11(1):6217).\n(§2) In order to produce a phenotype similar to that observed in atopic dermatitis patients in terms of chemokines produced and histology, it is necessary to stimulate the RHEs using a cocktail composed of: • Polyinosinic-polycytidylic acid (Poly (I:C)) (Reference P9582, Sigma) at 10 μg/ml; • Interleukin 4 (IL-4) (Reference BMS337, Invitrogen) and Interleukin 13 (IL-13) (Reference 213-ILB, R&D Systems) at 50 ng/ml; and • TNF (Tumour necrosis factor Reference 210-TA/CF, R&D Systems) at 10 ng/ml. […]\n(§3) The inflammatory cocktail as defined above, and also the various molecules to be tested (I3A, IALD and FICZ), are added simultaneously to the suitable cell culture medium, in which the RHEs are placed. […] The culture supernatant is then recovered, and the various chemokines are measured (kits in Table 1 below). […] The expression of the target genes (Table 1 below) is measured by qPCR.\n(§4) All experiments were performed with at least three biological replicates. […] The data was analysed with the one-way ANOVA test followed by Dunnett's multi-comparison test. […]\nThe metabolites alone are unable to induce TSLP or the various chemokines measured. Stimulation of the shFLG model by the (Poly(I:C), TNFa, IL-13, IL-4) cocktail as mentioned above results in TSLP production which is on average 10 times greater, and between 20 to 30 times greater for the other chemokines measured, than the control conditions in the culture supernatant.\nThe results in Table 2 below are expressed as percentage difference relative to the stimulated control in the RHE shFLG model. […]"}, "[3]": {"test_system": "Cyp1a1", "test": "qPCR expression of Cyp1a1 in cocktail-stimulated RHE", "details": "for induction of the Cyp1a1 pathway (in words): keratinocytes, \"as shown in the examples below\"; for Cyp1a1 gene expression (qPCR), mean: I3A 10 μg/ml, FICZ 100 ng/ml, cocktail-stimulated RHE, 48 h, Stim mean 0.99", "method": "as §1\nIn order to produce a phenotype similar to that observed in atopic dermatitis patients in terms of chemokines produced and histology, it is necessary to stimulate the RHEs using a cocktail composed of: • Polyinosinic-polycytidylic acid (Poly (I:C)) (Reference P9582, Sigma) at 10 μg/ml; • Interleukin 4 (IL-4) (Reference BMS337, Invitrogen) and Interleukin 13 (IL-13) (Reference 213-ILB, R&D Systems) at 50 ng/ml; and • TNF (Tumour necrosis factor Reference 210-TA/CF, R&D Systems) at 10 ng/ml.\nSimultaneous bringing into contact with the various molecules to be tested: • IALD ref: 129445, Sigma: stock solution 10 mg/ml in DMSO diluted in the RHE (Episkin) culture medium to the final concentration of 10 μg/ml; • FICZ ref: SML1489, Sigma: stock solution 0.5 mg/ml in DMSO diluted in the RHE (Episkin) culture medium at the final concentration of 100 ng/ml; and • I3A ref: 286281, Sigma: stock solution 10 mg/ml in DMSO diluted in the RHE (Episkin) culture medium to the final concentration of 10 μg/ml. Measuring the Chemokines in the Culture Supernatant, and qPCR\n(§5) The inflammatory cocktail as defined above, and also the various molecules to be tested (I3A, IALD and FICZ), are added simultaneously to the suitable cell culture medium, in which the RHEs are placed. The culture plates are then incubated at 37 °C for 48 hours. The culture supernatant is then recovered, and the various chemokines are measured (kits in Table 1 below). The RHEs are milled using ceramic beads and the RNA is extracted according to the manufacturer's instructions (kits in the table below). The expression of the target genes (Table 1 below) is measured by qPCR.\nAll experiments were performed with at least three biological replicates. The data is presented in the form of mean±SEM. GraphPad Prism (version 7.0; GraphPad Software, La Jolla, California). The data was analysed with the one-way ANOVA test followed by Dunnett's multi-comparison test. The results are considered to be statistically significant when p<0.05.\n(§6) qPCRs were performed to examine the expression of certain target genes induced in the context of the AhR pathway following stimulation with the cocktail that mimics certain phenotypes of atopic dermatitis, as defined above."}, "[4]": {"test_system": "TSLP", "details": "said to be dependent on AhR pathway; cited from earlier work"}, "[5]": {"test_system": "TRAIL", "test": "TRAIL production in culture supernatant of cocktail-stimulated RHE-shFLG (atopic dermatitis model)", "details": "IALD, I3A 10 μg/ml, FICZ 100 ng/ml, 48 h after stimulation, Poly(I:C) + IL-4 + IL-13 + TNF", "method": "as §1, §2, §3, §4\nThe results in Table 2 below are expressed as percentage difference relative to the stimulated control in the RHE shFLG model.\nThis Table 2 represents the percentage of the level of expression of TSLP and TRAIL (tumour necrosis factor-related apoptosis-inducing ligand) relative to the stimulated control in the RHE culture medium 48 h after stimulation. The p-values are calculated with respect to the stimulated control."}, "[6]": {"test_system": "Hmox1", "test": "qPCR expression of Hmox1 in cocktail-stimulated RHE", "details": "I3A 10 μg/ml, FICZ 100 ng/ml, 48 h, Stim mean 3.42", "method": "as §1, with “11(1):6217). […]” for “11(1):6217).”\nas §3, §4"}, "[7]": {"test_system": "Nrf2", "test": "qPCR expression of Nrf2 in cocktail-stimulated RHE", "details": "I3A 10 μg/ml, FICZ 100 ng/ml, 48 h, Stim mean 0.81", "method": "as §1, with “11(1):6217). […]” for “11(1):6217).”\nas §3, §4"}, "[8]": {"test_system": "Nqo1", "test": "qPCR expression of Nqo1 in cocktail-stimulated RHE", "details": "I3A 10 μg/ml, FICZ 100 ng/ml, 48 h, Stim mean 1.17", "method": "as §1, with “11(1):6217). […]” for “11(1):6217).”\nas §3, §4"}, "[9]": {"test_system": "antioxidant pathways", "test": "Antioxidant pathways (Nrf2, Hmox1, Nqo1 expression) under atopic conditions", "method": "as §5, §6\nConversely, a weaker induction of Cyp1a1 by I3A is observed in comparison with that by FICZ. Thus, I3A induces fewer adverse effects than FICZ, or even no adverse effects, by limiting the induction of Cyp1a1 and thus the xenobiotic pathway. Induction of the antioxidant pathway is monitored using the expression of the genes Nrf2, Hmox1, and Ngo1. Under atopic conditions, I3A slightly induces the antioxidant pathways."}, "[10]": {"test_system": "undifferentiated/dedifferentiated keratinocytes", "test": "Undifferentiated/dedifferentiated keratinocytes in RHE shFLG model (histology)", "details": "RHE shFLG stimulated with cocktail; data not presented", "method": "as §1, §2\n48 h after culturing the RHEs under the different stimulation conditions, the tissues are fixed in 4% paraformaldehyde (w/v), pH 6.9 (Carlo Erba Reagents, France) and kept at 4 °C for 24 to 48 h. […] The slides are scanned using a Nanozoomer S60 (Hamamatsu, Japan) and analyzed using the NDP view software. The images are analyzed with the DHisTo-Skin software (Digital Histological Tools for Skin), using the GeoLower algorithm. […]"}, "[11]": {"test_system": "stratum corneum of the RHE epidermis", "test": "Stratum corneum thickness of RHE epidermis (H&E histology, DHisTo-Skin software)", "details": "I3A 10 μg/ml; FICZ 100 ng/ml; cocktail-stimulated RHE, 48 h; non-stimulated control 19.88, stimulation 14.07", "method": "as §1, with “11(1):6217). […]” for “11(1):6217).”\n48 h after culturing the RHEs under the different stimulation conditions, the tissues are fixed in 4% paraformaldehyde (w/v), pH 6.9 (Carlo Erba Reagents, France) and kept at 4 °C for 24 to 48 h. […] The slides are scanned using a Nanozoomer S60 (Hamamatsu, Japan) and analyzed using the NDP view software. The images are analyzed with the DHisTo-Skin software (Digital Histological Tools for Skin), using the GeoLower algorithm.\nas §4"}, "[12]": {"test_system": "Cyp1a1 pathway", "details": "literature; cited from earlier work"}}}
{"smiles": "O=Cc1c[nH]c2ccccc12", "values": [{"measurement": "reduction of skin inflammation (in words)", "setting": "[1]", "value": "reduce skin inflammation"}, {"measurement": "TSLP production, percentage difference relative to the stimulated control (mean)", "setting": "[2]", "value": "−42.69", "unit": "%"}, {"measurement": "induction of the Cyp1a1 pathway (in words)", "setting": "[3]", "value": "strong inducer"}, {"measurement": "inhibition of TSLP production in keratinocytes (in words)", "setting": "[4]", "value": "inhibit production of TSLP"}, {"measurement": "TRAIL production, percentage difference relative to the stimulated control (mean)", "setting": "[5]", "value": "−7.45", "unit": "%"}]}
{"smiles": "NC(=O)Cc1c[nH]c2ccccc12", "values": [{"measurement": "Hmox1 gene expression (qPCR), mean", "setting": "[6]", "value": 2.45}, {"measurement": "Nrf2 gene expression (qPCR), mean", "setting": "[7]", "value": 0.46}, {"measurement": "Nqo1 gene expression (qPCR), mean", "setting": "[8]", "value": 0.5}, {"measurement": "TSLP production, percentage difference relative to the stimulated control (mean)", "setting": "[2]", "value": "−51.35", "unit": "%"}, {"measurement": "induction of the antioxidant pathways (in words)", "setting": "[9]", "value": "slightly induces"}, {"measurement": "Cyp1a1 gene expression (qPCR), mean", "setting": "[3]", "value": 1.57}, {"measurement": "induction of the Cyp1a1 pathway (in words)", "setting": "[3]", "value": "only very weakly induces, or does not induce"}, {"measurement": "decrease of surface area and/or number of undifferentiated/dedifferentiated keratinocytes (in words)", "setting": "[10]", "value": "able to decrease"}, {"measurement": "mean thickness of stratum corneum", "setting": "[11]", "value": 18.07, "unit": "μm"}, {"measurement": "TRAIL production, percentage difference relative to the stimulated control (mean)", "setting": "[5]", "value": "−23.53", "unit": "%"}]}
{"smiles": "O=Cc1c2[nH]c3ccccc3c2cc2[nH]c3ccccc3c12", "values": [{"measurement": "induction of the Cyp1a1 pathway (in words)", "setting": "[12]", "value": "strong inducer"}, {"measurement": "Hmox1 gene expression (qPCR), mean", "setting": "[6]", "value": 4.67}, {"measurement": "Nrf2 gene expression (qPCR), mean", "setting": "[7]", "value": 1}, {"measurement": "Nqo1 gene expression (qPCR), mean", "setting": "[8]", "value": 1.32}, {"measurement": "TSLP production, percentage difference relative to the stimulated control (mean)", "setting": "[2]", "value": "−39.45", "unit": "%"}, {"measurement": "Cyp1a1 gene expression (qPCR), mean", "setting": "[3]", "value": 11.09}, {"measurement": "mean thickness of stratum corneum", "setting": "[11]", "value": 16.2, "unit": "μm"}, {"measurement": "TRAIL production, percentage difference relative to the stimulated control (mean)", "setting": "[5]", "value": "−64.69", "unit": "%"}]}
